Laboratory results: ChEMBL document CHEMBL1130557, “Synthesis and biological evaluation of 14-alkoxymorphinans. 14.1 14-ethoxy-5-methyl substituted indolomorphinans with opioid receptor selectivity” (Bioorg Med Chem Lett, 1997)

Sequences of proteins named here, by UniProt entry; tags and fusion partners are left off.
UniProt P33535, whole entry: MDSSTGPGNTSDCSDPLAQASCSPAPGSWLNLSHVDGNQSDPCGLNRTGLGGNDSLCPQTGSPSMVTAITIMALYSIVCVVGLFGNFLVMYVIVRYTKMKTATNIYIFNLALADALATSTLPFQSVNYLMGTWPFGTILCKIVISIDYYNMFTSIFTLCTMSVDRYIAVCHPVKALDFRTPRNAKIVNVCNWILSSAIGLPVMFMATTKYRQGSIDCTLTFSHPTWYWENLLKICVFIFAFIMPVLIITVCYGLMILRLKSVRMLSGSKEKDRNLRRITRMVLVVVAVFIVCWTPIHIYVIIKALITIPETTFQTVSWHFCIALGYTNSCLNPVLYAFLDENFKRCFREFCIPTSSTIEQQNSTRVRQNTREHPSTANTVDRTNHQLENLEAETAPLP

Molecular target: Mu-type opioid receptor (Rattus norvegicus, UniProt P33535)
Experiment: Compound was evaluated for the binding affinity towards mu opioid receptor in rat brain homogenates using [3H]DAMGO as radioligand
Format: tissue-based

Oc1ccc2c3c1O[C@H]1c4[nH]c5ccccc5c4C[C@@]4(O)[C@@H](C2)N(CC2CC2)CC[C@]314 [NALTRINDOLE]
Ki: 30.4 nM
